Structures can show the parent of a compound that is named as a salt.

Test [1] relates to KBM-5 chronic myeloid leukemia cells. The experiment in a line: In vivo antitumor activity (survival) in mice bearing KBM-5 cells. Particulars: KBM-5, third (combination) experiment, 50 mg/kg ip, bid × 10. The procedure:
Three to five week-old ICR SCID female mice weighting 20-25 g were obtained from Taconic farms. They were acclimatized for a week prior to the experiment. The animals were maintained on a standard animals feed and drinking water ad libitum. Mice were housed in an air-conditioned room at the temperature of 22±1° C. and 50-70% humidity with a 12/12 h-light/dark cycle throughout the experiment.
Mice were irradiated (1×250 centigray; cGy) and injected i.p. with 2×10^7 or 2,4×10^7 KBM-5 or KBM-5R tumor cells, respectively. […] In primary experiments (with KBM-5 cells) or secondary experiments (with KBM-5R cells), tumor-bearing animals were randomised (8-10 per group and treated by Troxatyl™ i.p. at 5, 10, 20, or 25 mg/kg once a day for 5 consecutive days (days 20-24). Control (untreated) mice received saline. In third experiments (with KBM-5 cells), tumor bearing animals (6 per group) were treated by one of the following schemes:
Animals in complete remission, free of detectable tumor (negative for human DQα-gen) were considered cured.
LTS were electively sacrificed on Day 95 in single agent experiments or on Day 100 in combination treatment experiment.

The next test deals with KBM5-STI^R1.0 cells. Particulars: KBM5-STIR^R1.0 vs parental KBM5.
The next test concerns KBM7-STI^R1.0 cells. Particulars: KBM7-STI^R1.0 vs parental KBM7.

Take `Cc1ccc(NC(=O)c2ccc(CN3CCN(C)CC3)cc2)cc1Nc1nccc(-c2cccnc2)n1` [STI-571, imatinib mesylate]: in test [1], the T/C % stood at 108.95%. For the same compound, the “IC50 relative to the corresponding parental cell line” value with KBM5-STI^R1.0 cells and in the test with KBM7-STI^R1.0 cells was “about twenty” in each case.

These data come from patent US20040192652A1, “Pharmaceutical combinations and methods for the treatment of leukemia” (priority 2002, published 2004).
